# Apparent affinities of Ab-14 variants for a coronavirus HR2 peptide

Reference: Engelhart et al. 2022, doi:10.1038/s41597-022-01779-4. File: FLAb, binding data.

Antigen: PDVDLGDISGINAS, a 14-residue peptide of the SARS-CoV-2 spike HR2 region.

The variants keep the heavy chain, the linker and the frameworks of Ab-14 (scFv order VH, three GGGGS repeats, VL).
VH: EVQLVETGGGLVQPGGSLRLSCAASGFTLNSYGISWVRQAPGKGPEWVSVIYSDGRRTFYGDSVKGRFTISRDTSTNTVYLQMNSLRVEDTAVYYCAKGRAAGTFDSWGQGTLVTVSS
VL: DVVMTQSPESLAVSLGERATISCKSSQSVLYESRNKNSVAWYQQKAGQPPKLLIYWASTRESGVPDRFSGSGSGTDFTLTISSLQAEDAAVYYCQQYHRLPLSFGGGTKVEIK

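The parent was found by panning a naive human phage display library on the peptide. The library (AAYL50) carries one to three amino acid substitutions per variant, with no insertions or deletions. The scFvs were displayed on barcoded MATa yeast, the peptide on MATalpha yeast. Mating (16 h, 30 °C) was followed by selection of diploids and sequencing of their barcodes. Each replicate has its own calibration line, from reference interactions of the BCL2 family. There are three technical replicates.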

Variants are written as CDR1, CDR2 and CDR3 of the light chain (limits as in the source). Parent: KSSQSVLYESRNKNSVA, WASTRES, QQYHRLPLS. Affinities are written as log10 Kd with Kd in nM; a lower number is a better binder. A mean of the replicates is given; it leaves out those without a signal. "not detected" means that the variant was in the library but no mating with the target was seen in any replicate; the authors take this as a sign of poor binding, and no number exists.

| # | mean, log10 nM | detected | empty controls | CDR-L1 | CDR-L2 | CDR-L3 |
|---|---|---|---|---|---|---|
| 1 | not detected | 0/3 | 1/9 | KSSQSVLYESRLKQCVA | WASTRES | QQYHRLPLS |
| 2 | 2.55 | 1/3 | 1/9 | KSSQSVLQESRNKTSVA | WASYRES | QQYHRLPLS |
| 3 | 5.70 | 1/3 | 1/9 | KSSQSVLMESRMKNSVA | WASTRES | QQYHRLPLY |
| 4 | not detected | 0/3 | 3/9 | MSSQSALYESRNKNSVA | VASTRES | QQYHRLPLS |
| 5 | 4.16 | 1/3 | 0/9 | KSSQRHLYESRNKNSVA | WWSTRES | QQYHRLPLS |
| 6 | 0.03 | 3/3 | 4/9 | VSSQSVLYESRNCNSVA | NASTRES | QQYHRLPLS |
| 7 | 3.13 | 3/3 | 0/9 | KSSQIVLYESRNNNSVA | WASTRES | QQYHRLPLS |
| 8 | 2.74 | 3/3 | 1/9 | KSSQSVLYESRQKNSVA | WASTRES | QQYHRLELC |
| 9 | not detected | 0/3 | 0/9 | KSSQSVLCESRNKNSVA | WASMREF | QQYHRLPLS |
| 10 | 5.84 | 1/3 | 0/9 | KSSQSVMYESRNKNSVP | WASTRES | QQCHRLPLS |
| 11 | 3.90 | 3/3 | 1/9 | KSSPSVLYESRNKSSVA | WASTRES | QQYHRKPLS |
| 12 | not detected | 0/3 | 3/9 | KSSQSVLYESRMKNGVA | WASTRES | QTYHRLPLS |
| 13 | 3.93 | 1/3 | 2/9 | KSSQSVLYESRNDNSVL | WASTRES | QQYHVLPLS |
| 14 | 3.79 | 3/3 | 5/9 | KSSQSVLYESREKNSVA | WASTRES | AQYHRLPLW |
| 15 | 1.50 | 3/3 | 0/9 | KSMQSVLKESINKNSVA | WASTRES | QQYHRLPLS |
| 16 | 1.75 | 3/3 | 1/9 | KSSQSVLYESRNKNSVA | WASTRPS | QQYHRLVLK |
| 17 | not detected | 0/3 | 0/9 | KSSQSVLYWSRTKISVA | WASTRES | QQYHRLPLS |
| 18 | 2.36 | 3/3 | 6/9 | KSSQSVLYESRLKNSVA | WAVTREF | QQYHRLPLS |
| 19 | not detected | 0/3 | 0/9 | KSSSIVLYESRNKGSVA | WASTRES | QQYHRLPLS |
| 20 | 1.93 | 1/3 | 0/9 | KSSQSVLYESRNKNPVA | WASKRES | QQYHRFPLS |
| 21 | 3.14 | 1/3 | 1/9 | KSSQSVLYFSRNKNSVA | LAWTRES | QQYHRLPLS |
| 22 | not detected | 0/3 | 0/9 | KSSQSVLYESRNKNSVA | WASTFCS | AQYHRLPLS |
| 23 | 1.07 | 3/3 | 3/9 | KSSQSVLNEGRNKNSVA | WASTRES | QQYHKLPLS |
| 24 | 0.63 | 3/3 | 3/9 | KWSQSHLYESRNKNSVA | WASTRES | QQAHRLPLS |
| 25 | 4.35 | 3/3 | 3/9 | KSSQSVLYESRDKNSVA | WNSTRES | QQYHRLPES |
| 26 | 0.47 | 3/3 | 0/9 | KSGQSVLYEERNKNSVA | WASTRES | QQYHRVPLS |
| 27 | 4.11 | 2/3 | 3/9 | KSSQSVLYESRNKNTVA | WASTRES | RQMHRLPLS |
| 28 | 2.96 | 2/3 | 0/9 | KSSQSCLYESRNKNSVA | WASTREA | QQYHRKPLS |
| 29 | 1.70 | 3/3 | 5/9 | KSSQSVLYESRNKNSVA | WASTRWS | QQFHRLPLS |
| 30 | 2.18 | 3/3 | 0/9 | KSSQSVSYESRNKNSVA | WASDRES | QQYHRLPLS |
| 31 | 4.26 | 1/3 | 0/9 | KSSWSVLYESRNRNSVA | WASTRES | QQYHCLPLS |
| 32 | 2.17 | 3/3 | 0/9 | KSSQSVIYESRNKNSIA | WASTRES | QQYERLPLS |
| 33 | 0.87 | 3/3 | 4/9 | KSSQSVIYESRNKNSVA | WASTRES | QQVHRLPWS |
| 34 | 4.24 | 2/3 | 1/9 | KSSQSVLYESRFKNSVA | VASTRES | QQYHRLPLE |
| 35 | not detected | 0/3 | 0/9 | KDSQSVLYESRNKNSVA | WASTRES | QQYHALPIS |
| 36 | 3.78 | 2/3 | 1/9 | KSSQSCLEESRNKNSVE | WASTRES | QQYHRLPLS |
| 37 | 1.78 | 3/3 | 2/9 | KSSQSVLYESRNKLSVA | WASTRES | QQYWRLPLS |
| 38 | not detected | 0/3 | 2/9 | ASSQSVLYESREKNSVA | WASTRES | QQYHRLALS |
| 39 | not detected | 0/3 | 0/9 | KSSQSVLYESRNKNSVA | WANTRES | QQYRRLPVS |
| 40 | 0.55 | 3/3 | 4/9 | KSSNSVLYESRNKNSIA | WASTRES | QQYQRLPLS |
| 41 | 1.08 | 3/3 | 2/9 | KSSQRVLLESRNKNSVA | WASTRES | QQYHRLPLS |
| 42 | 4.78 | 1/3 | 2/9 | KSSQSVLYESRNKNSVA | WASTRES | QQYHKPPVS |
| 43 | 2.29 | 3/3 | 3/9 | KSSQSVLEESRNKESVA | WASTRES | QQYHRLPLS |
| 44 | 3.22 | 1/3 | 3/9 | KSSQSTLYESRNKWSVA | WASTRES | QQYHRLPWS |
| 45 | not detected | 0/3 | 0/9 | KSSQSVLYESRNKNSVA | VGSTRES | QQTHRLPLS |
| 46 | 1.12 | 3/3 | 0/9 | KTSQSVLYDSRNKNSVA | WASTRES | QQYHYLPLS |
| 47 | 0.66 | 3/3 | 0/9 | KSSQSVLYESRNKNSVA | WASTREQ | QQYHFLPLS |
| 48 | 5.07 | 3/3 | 5/9 | KSSQSVEYESRNKNSVA | WASTREG | QQYHRLPES |
| 49 | 2.95 | 1/3 | 0/9 | WSSASVLYESRNKNSVA | WAFTRES | QQYHRLPLS |

In this assay the parent's reference entry averaged 0.65; its copy inside this library read 1.68. Background: pairings of library AAYL50 with three empty control strains gave a value in 18% of cases (median 4.19, 5th percentile 2.99). Values in that range, when seen in few replicates, are hard to tell from nonspecific mating. For each scFv, signals with the empty controls are counted beside the result.